The values that follow come from patent US20260042834A1, “ANTI-CORTICOTROPIN-RELEASING HORMONE ANTIBODIES AND POLYCYSTIC OVARY SYNDROME” (HBM ALPHA THERAPEUTICS, INC., priority 2022, published 2026).

Assay [1] addresses T1, biotinylated CRH (Homo sapiens, UniProt P06850).
T1 construct: purchased GL Biochem 784751
T1 sequence (P06850 154-194): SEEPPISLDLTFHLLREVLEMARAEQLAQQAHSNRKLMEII
The assay can be described thus: Affinity determination with Octet. Format: binding. Here is the method: Octet® Red 96e was used for affinity measurement. Octet® running buffer was prepared by diluting kinetics buffer 10× (Fortebio, Cat #18-1105) in PBS according to the manufacturer's instructions. Two columns of SA sensors (Fortebio, Cat #18-5019) were hydrated in running buffer for 10 mins, one for ligand capturing and the other for reference. Antibodies were 2-fold diluted and added into a 96-well plate. 30 nM biotinylated CRH (GL Biochem, Cat #784751) was captured by the first column of SA sensors for 20 seconds, while reference sensors were dipped into buffer wells. After a 60-second baseline step, sensors were dipped into analyte and buffer wells successively, with the association and dissociation time of 180 seconds and 800 seconds, respectively. Sensors were regenerated in glycine pH1.5 (Cytiva, Cat #BR-1003-54) before the next cycle. […] Signals of reference wells and reference sensors were subtracted by selecting “Double reference” before data fitting.
For orientation: Biolayer interferometry detects binding as a change in optical thickness at a sensor tip.

In assay [2] the test system is mouse CRHR2. The assay can be described thus: CRH-induced luciferase reporter blocking assay, CHO-CRE-mCRHR2 cells. Conditions: CHO-CRE-mCRHR2 cells, 5 nM CRH. The format is cell-based. Here is the method:
To create CHO-CRE-hCRHR1, -hCRHR2, -mCRHR1, and -mCRHR2 reporter cell lines, pcDNA3.1-hCRHR1, -hCRHR2, -mCRHR1, and -mCRHR2 were introduced into CHO-CRE cells established above by electroporation as described above. Selection antibiotics hygromycin at 500 μg/ml and G418 at 1,000 μg/ml were employed. Individual established stable cell lines were characterized by both CRH and forskolin stimulation. […]
(§1) Cells were digested by trypsin-EDTA (Life technologies, Cat #:12604-013), centrifuged at 1,000 rpm for 5 min, resuspended in growth medium, counted using a cell counter, seeded at a concentration of 5,000 cells per 100 μl in 96-well flat plates, and incubated overnight. 50 μl of 4× serially diluted antibodies was added (8 points, 1/4 diluted by growth medium) to plates containing CHO-CRE-hCRHR1 cells, and 50 μl of 4×CRH (4× is 2 nM, final is 0.5 nM) was added. Similarly, 4×CRH (4× is 0.4 nM, final is 0.1 nM) was added to CHO-CRE-hCRHR2 cells and CHO-CRE-mCRHR1 cells, and 4×CRH (4× is 20 nM, final is 5 nM) was added to CHO-CRE-mCRHR2 cells. Next, plates were incubated 4-6 hours at 37° C. in a CO2 incubator. 60 μl of culture medium was removed, to which was added 60 μl of Bio-Glo luciferase, followed by incubation for 10 min at RT. Plates were read in a luciferase plate reader (EnVision, PerkinElmer).
On the technique in general: In a reporter assay the amount or activity of a reporter protein is the signal.

Assay [3] relates to human CRHR2. The assay can be described thus: CRH-induced luciferase reporter blocking assay, CHO-CRE-hCRHR2 cells. The format is cell-based. Conditions: CHO-CRE-hCRHR2 cells, 0.1 nM CRH. The procedure:
To create CHO-CRE-hCRHR1, -hCRHR2, -mCRHR1, and -mCRHR2 reporter cell lines, pcDNA3.1-hCRHR1, -hCRHR2, -mCRHR1, and -mCRHR2 were introduced into CHO-CRE cells established above by electroporation as described above. Selection antibiotics hygromycin at 500 μg/ml and G418 at 1,000 μg/ml were employed. Individual established stable cell lines were characterized by both CRH and forskolin stimulation.
Activated GPCR proteins increase production of the intracellular cAMP. CHO-CRE-human CRHR1 stable clone 11 was generated by introduction of pcDNA3.1-human CRHR1 under the selection of G418 and hygromycin. Human CRHR1 expression in CHO-CRE-hCRHR1 Clone 11 was confirmed by flow cytometry (data not shown). To further validate that the cell line was functional, CHO-CRE-hCRHR1 Clone 11 cells were treated with forskolin and CRH peptide. […] Subsequently CHO-CRE-hCRHR2 Clone 32, -mCRHR1 Clone 22, and -mCRHR2 Clone 8 cell lines were established using similar methodology and validated with CRH treatment (data not shown).
Blocking CRHR1 by small molecules or neutralization of CRH peptide can reduce luciferase expression if the CRH-CRHR1 system works in CHO-CRE-hCRHR1 cells. Antalarmin, a small molecule CRHR1 antagonist, blocked CRH-mediated luciferase expression in CHO-CRE-hCRHR1 Clone 11 (data not shown). Furthermore, sheep anti-CRH polyclonal antibody reduced CRH-mediated luciferase expression in these cells (data not shown). Likewise, sheep anti-CRH polyclonal antibody blocked CRH-mediated luciferase expression in CHO-CRE-hCRHR2, CHO-CRE-mCRHR1, and CHO-CRE-mCRHR2 cells (data not shown).
as §1

B1: PR005658: ΔPTM variant of Series 1 mAb PR004290; HCDR2 54DG55, LCDR1 36QS37 (antibody)
heavy: EVQLVESGGVLVQPGGSLRLSCAASGFTFSSYWMTWVRQAPGKGLEWVANIKQDGSEKYYVDSVKGRFTISRDNAKNSLFLQMNSLRAEDTAVYYCARTLIFDYWGQGTLVTVSSASTKGPSVFPLAPSSKSTSGGTAALGCLVKDYFPEPVTVSWNSGALTSGVHTFPAVLQSSGLYSLSSVVTVPSSSLGTQTYICNVNHKPSNTKVDKKV[human IgG1 Fc not listed]
light: DIVMTQSPLSLPVTPGEPASISCRSSQSLLHSTGYQSLEWYLQKPGQSPQLLIYLGSNRASGVPDRFSGSGSGTDFTLKISRVEAEDVGIYYCMQTLQTPITFGQGTRLEIKRTVAAPSVFIFPPSDEQLKSGTASVVCLLNNFYPREAKVQWKVDNALQSGNSQESVTEQDSKDSTYSLSSTLTLSKADYEKHKVYACEVTHQGLSSPVTKSFNRGEC
For orientation: kon means a measure of how fast the partners come together. High values mean fast association, low ones slow association. The IC50 is the point on the concentration scale where inhibition reaches its midpoint. Read a high IC50 as weaker potency. For the molecule B1, the “kdis” value in assay [1] stood at 9.11e-05 s⁻¹. Besides, the on-rate constant (kon) in assay [1] came to 509000 M⁻¹ s⁻¹. For the same molecule, the IC50 in assay [2] is 19.4 nM; in assay [3], 76.5 nM.

B2: PR006144: ΔPTM variant of Series 1 mAb PR004290; HCDR2 54EG55, LCDR1 36NP37 (antibody)
heavy: EVQLVESGGVLVQPGGSLRLSCAASGFTFSSYWMTWVRQAPGKGLEWVANIKQEGSEKYYVDSVKGRFTISRDNAKNSLFLQMNSLRAEDTAVYYCARTLIFDYWGQGTLVTVSSASTKGPSVFPLAPSSKSTSGGTAALGCLVKDYFPEPVTVSWNSGALTSGVHTFPAVLQSSGLYSLSSVVTVPSSSLGTQTYICNVNHKPSNTKVDKKV[human IgG1 Fc not listed]
light: DIVMTQSPLSLPVTPGEPASISCRSSQSLLHSTGYNPLEWYLQKPGQSPQLLIYLGSNRASGVPDRFSGSGSGTDFTLKISRVEAEDVGIYYCMQTLQTPITFGQGTRLEIKRTVAAPSVFIFPPSDEQLKSGTASVVCLLNNFYPREAKVQWKVDNALQSGNSQESVTEQDSKDSTYSLSSTLTLSKADYEKHKVYACEVTHQGLSSPVTKSFNRGEC
On to B2, for which, in assay [1], the “kdis” value was determined as 4.47e-05 s⁻¹ and the “kon” value came out at 499000 M⁻¹ s⁻¹. Besides, the IC50 in assay [3] was 2.64 nM.

B3: PR006145 (antibody)
heavy: EVQLVESGGVLVQPGGSLRLSCAASGFTFSSYWMTWVRQAPGKGLEWVANIKQEGSEKYYVDSVKGRFTISRDNAKNSLFLQMNSLRAEDTAVYYCARTLIFDYWGQGTLVTVSSASTKGPSVFPLAPSSKSTSGGTAALGCLVKDYFPEPVTVSWNSGALTSGVHTFPAVLQSSGLYSLSSVVTVPSSSLGTQTYICNVNHKPSNTKVDKKV[human IgG1 Fc not listed]
light: DIVMTQSPLSLPVTPGEPASISCRSSQSLLHSTGYSSLEWYLQKPGQSPQLLIYLGSNRASGVPDRFSGSGSGTDFTLKISRVEAEDVGIYYCMQTLQTPITFGQGTRLEIKRTVAAPSVFIFPPSDEQLKSGTASVVCLLNNFYPREAKVQWKVDNALQSGNSQESVTEQDSKDSTYSLSSTLTLSKADYEKHKVYACEVTHQGLSSPVTKSFNRGEC
As for B3, in assay [1], the “kdis” value worked out at 6.75e-05 s⁻¹ and the “kon” value came to 222000 M⁻¹ s⁻¹.

B4: PR005662: ΔPTM variant of Series 1 mAb PR004290; HCDR2 54DA55, LCDR1 36QS37 (antibody)
heavy: EVQLVESGGVLVQPGGSLRLSCAASGFTFSSYWMTWVRQAPGKGLEWVANIKQDASEKYYVDSVKGRFTISRDNAKNSLFLQMNSLRAEDTAVYYCARTLIFDYWGQGTLVTVSSASTKGPSVFPLAPSSKSTSGGTAALGCLVKDYFPEPVTVSWNSGALTSGVHTFPAVLQSSGLYSLSSVVTVPSSSLGTQTYICNVNHKPSNTKVDKKV[human IgG1 Fc not listed]
light: DIVMTQSPLSLPVTPGEPASISCRSSQSLLHSTGYQSLEWYLQKPGQSPQLLIYLGSNRASGVPDRFSGSGSGTDFTLKISRVEAEDVGIYYCMQTLQTPITFGQGTRLEIKRTVAAPSVFIFPPSDEQLKSGTASVVCLLNNFYPREAKVQWKVDNALQSGNSQESVTEQDSKDSTYSLSSTLTLSKADYEKHKVYACEVTHQGLSSPVTKSFNRGEC
As to B4, in assay [1], the “kdis” value is 8.27e-05 s⁻¹ and the “kon” value was found to be 396000 M⁻¹ s⁻¹. For the same molecule, half-maximal inhibition in assay [2] (IC50) was put at 38.8 nM. Further, the IC50 in assay [3] was 210 nM.

B5: PR006142: ΔPTM variant of Series 1 mAb PR004290; HCDR2 54EG55, LCDR1 36DS37 (antibody)
heavy: EVQLVESGGVLVQPGGSLRLSCAASGFTFSSYWMTWVRQAPGKGLEWVANIKQEGSEKYYVDSVKGRFTISRDNAKNSLFLQMNSLRAEDTAVYYCARTLIFDYWGQGTLVTVSSASTKGPSVFPLAPSSKSTSGGTAALGCLVKDYFPEPVTVSWNSGALTSGVHTFPAVLQSSGLYSLSSVVTVPSSSLGTQTYICNVNHKPSNTKVDKKV[human IgG1 Fc not listed]
light: DIVMTQSPLSLPVTPGEPASISCRSSQSLLHSTGYDSLEWYLQKPGQSPQLLIYLGSNRASGVPDRFSGSGSGTDFTLKISRVEAEDVGIYYCMQTLQTPITFGQGTRLEIKRTVAAPSVFIFPPSDEQLKSGTASVVCLLNNFYPREAKVQWKVDNALQSGNSQESVTEQDSKDSTYSLSSTLTLSKADYEKHKVYACEVTHQGLSSPVTKSFNRGEC
Turning to B5, in assay [1], the “kdis” value came out at 4.08e-05 s⁻¹ and the “kon” value was determined as 333000 M⁻¹ s⁻¹.

B6: PR006143 (antibody)
heavy: EVQLVESGGVLVQPGGSLRLSCAASGFTFSSYWMTWVRQAPGKGLEWVANIKQEGSEKYYVDSVKGRFTISRDNAKNSLFLQMNSLRAEDTAVYYCARTLIFDYWGQGTLVTVSSASTKGPSVFPLAPSSKSTSGGTAALGCLVKDYFPEPVTVSWNSGALTSGVHTFPAVLQSSGLYSLSSVVTVPSSSLGTQTYICNVNHKPSNTKVDKKV[human IgG1 Fc not listed]
light: DIVMTQSPLSLPVTPGEPASISCRSSQSLLHSTGYHSLEWYLQKPGQSPQLLIYLGSNRASGVPDRFSGSGSGTDFTLKISRVEAEDVGIYYCMQTLQTPITFGQGTRLEIKRTVAAPSVFIFPPSDEQLKSGTASVVCLLNNFYPREAKVQWKVDNALQSGNSQESVTEQDSKDSTYSLSSTLTLSKADYEKHKVYACEVTHQGLSSPVTKSFNRGEC
B6: in assay [1], the “kdis” value was determined as 2.85e-05 s⁻¹ and the “kon” value was found to be 457000 M⁻¹ s⁻¹.

B7: PR005656: ΔPTM variant of Series 1 mAb PR004290; HCDR2 54EG55, LCDR1 36NS37 (antibody)
heavy: EVQLVESGGVLVQPGGSLRLSCAASGFTFSSYWMTWVRQAPGKGLEWVANIKQEGSEKYYVDSVKGRFTISRDNAKNSLFLQMNSLRAEDTAVYYCARTLIFDYWGQGTLVTVSSASTKGPSVFPLAPSSKSTSGGTAALGCLVKDYFPEPVTVSWNSGALTSGVHTFPAVLQSSGLYSLSSVVTVPSSSLGTQTYICNVNHKPSNTKVDKKV[human IgG1 Fc not listed]
light: DIVMTQSPLSLPVTPGEPASISCRSSQSLLHSTGYNSLEWYLQKPGQSPQLLIYLGSNRASGVPDRFSGSGSGTDFTLKISRVEAEDVGIYYCMQTLQTPITFGQGTRLEIKRTVAAPSVFIFPPSDEQLKSGTASVVCLLNNFYPREAKVQWKVDNALQSGNSQESVTEQDSKDSTYSLSSTLTLSKADYEKHKVYACEVTHQGLSSPVTKSFNRGEC
As for B7, the “kdis” value in assay [1] came out at 4.55e-05 s⁻¹. The molecule also registered an IC50 in assay [3] of 5.76 nM.
